The values below come from PubChem BioAssay AID1208 (EPA DSSTox, 2008).

In this data set the test system is rat chronic carcinogenicity bioassay, TD50. Put plainly: DSSTox (CPDBAS) Carcinogenic Potency Database Summary Rat Bioassay Results. The conditions noted are these: for Potency: stronger effect = lower value; for outcome: TD50_Rat_Note: no positive results. The text has this:
The Carcinogenic Potency Database (CPDB) is a unique and widely used international resource of the results of over 6500 chronic, long-term animal cancer tests on over 1500 chemical substances. The CPDB provides easy access to the bioassay literature, with qualitative and quantitative analyses of both positive and negative experiments that have been published over the past 50 years in the general literature and by the National Cancer Institute/National Toxicology Program. The CPDB standardizes the diverse literature of cancer bioassays that vary widely in protocol, histopathological examination and nomenclature, and in the published author's choices of what information to provide in their papers. Results are reported in the CPDB for tests in rats, mice, hamsters, dogs, and nonhuman primates, and are based on the most positive result among all experiments for each sex-species. The DSSTox CPDBAS (all species) file incorporates data from the CPDB Summary Tables for the full list of over 1500 chemical substances tested in at least one species. Summary bioassay results for Rat (TD50, tumor sites, male, female, both sexes) are provided in the CPDB Summary Tables and the DSSTox CPDBAS file for over 1200 chemical substances.
TD50 is a standardized quantitative measure of carcinogenic potency (analogous to an LD50) and is reported in the CPDB Summary Table for each species. Activity Score for actives is computed by mapping of LOG10 (1/TD50_Rat_mmol) activity values spanning range [MIN, MAX] onto Integer 1-100 Activity Score range, where 100 is highest potency and 1 is lowest: Activity Score = 100 * INTEGER[(log10(1/Activity) - MIN)/(MAX - MIN)]. If activity is reported but no TD50_Rat_mmol value is computed, such as for a mixture, the Activity Score is assigned the activity value "50". […] Target sites are reported for each sex-species group with a positive result in the CPDB on the basis of a positive author's opinion for the particular site, using all results from both the general literature and NCI/NTP bioassays. If a chemical has two or more target sites listed, the results may be from different experiments, and a single site may be a target organ in more than one experiment, as well. Blank entry in TargetSites field indicates no results reported.

[1] abbreviates: TargetSites_Rat_Female: no positive results.

The source made the active and inactive calls.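 Rule for the calls: active = at least one rat sex group has a carcinogenic potency value and tumor site recorded; inconclusive = only rat studies were judged inadequate by the national testing program; inactive = no potency or tumor site, with negative rat experiments.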

Regarding `O=C1C2CC=CCC2C(=O)N1SC(Cl)(Cl)C(Cl)Cl` (stereo not drawn), the Potency (TD50_Rat_Note: TD50 is harmonic mean of more than one positive test, greater than ten-fold variation among TD50 values for positive res, TargetSites_Rat_Female: kidney, liver, mammary gland) is 73.4 mg/kg/day.

Consider `CN(N=O)C(=N)N[N+](=O)[O-]`, for which the Potency (TD50_Rat_Note: TD50 is harmonic mean of more than one positive test, greater than ten-fold variation among TD50 values for positive res, TargetSites_Rat_Female: small intestine, stomach) was 0.803 mg/kg/day.

In the case of `C[As](C)(C)=O`, the Potency was 24.1 mg/kg/day.

For the compound `C[As](=O)(O)O`, the outcome under setting [1] was “inactive; no positive results”. `O[C@@H]([C@H](O)[C@H](O)CNCCCl)[C@H](O)CNCCCl`: the outcome was “inactive; no positive results”. With `COP(=S)(OC)SCCNC(C)=O`, under setting [1], the outcome is “inactive; no positive results”. Regarding `NC(=O)Nc1ccc([As](=O)(O)O)cc1`, the outcome under setting [1] is “inactive; no positive results”. `COP(=O)(OC)N1CCOCC1`: the Potency (TD50_Rat_Note: TD50 is harmonic mean of more than one positive test, TargetSites_Rat_Female: hematopoietic system) was 614 mg/kg/day.
